Data as given in ChEMBL document CHEMBL1128307, “2-Aralkynyl and 2-heteroalkynyl derivatives of adenosine-5'-N-ethyluronamide as selective A2a adenosine receptor agonists” (J Med Chem, 1995).

System: Adenosine receptors A1 & A2a (Rattus norvegicus)
Test: Selectivity as the ratio of Ki value towards A1 receptor to that of A2a receptor
Assay type: protein assay

- Selectivity: 0.6
SMILES: C#Cc1nc(N)c2ncn([C@@H]3O[C@H](C(=O)NCC)[C@@H](O)[C@H]3O)c2n1
